Laboratory results as given in ChEMBL document CHEMBL1129348, “Effects of modifications of residues in position 3 of dynorphin A(1-11)-NH2 on kappa receptor selectivity and potency” (J Med Chem, 1996).

Legend:
[1] = system: Opioid receptors mu & kappa (Cavia porcellus); assay: Selectivity ratio between mu and kappa opioid receptor from guinea pig brain homogenate
[2] = system: Opioid receptors delta & kappa (Cavia porcellus); assay: Selectivity ratio between delta and kappa opioid receptor from guinea pig brain homogenate
[3] = Ratio between IC50 of GPI and GPB; format: functional

| SMILES | Ratio [1] | Ratio [2] | Ratio [3] |
| --- | --- | --- | --- |
| CC[C@H](C)[C@H](NC(=O)[C@H](CCCN=C(N)N)NC(=O)[C@H](CCCN=C(N)N)NC(=O)[C@H](CC(C)C)NC(=O)[C@H](Cc1ccccc1)NC(=O)[C@@H](Cc1ccc(O)cc1)NC(=O)CNC(=O)[C@@H](N)Cc1ccc(O)cc1)C(=O)N[C@@H](CCCN=C(N)N)C(=O)N1CCC[C@H]1C(=O)N[C@@H](CCCCN)C(N)=O | 28 | 240 |  |
| CC[C@H](C)[C@H](NC(=O)[C@H](CCCN=C(N)N)NC(=O)[C@H](CCCN=C(N)N)NC(=O)[C@H](CC(C)C)NC(=O)[C@H](Cc1ccccc1)NC(=O)[C@H](NC(=O)CNC(=O)[C@@H](N)Cc1ccc(O)cc1)[C@@H](C)c1c(C)cccc1C)C(=O)N[C@@H](CCCN=C(N)N)C(=O)N1CCC[C@H]1C(=O)N[C@@H](CCCCN)C(N)=O | 19 | 22 | 22 |
| CC[C@H](C)[C@H](NC(=O)[C@H](CCCN=C(N)N)NC(=O)[C@H](CCCN=C(N)N)NC(=O)[C@H](CC(C)C)NC(=O)[C@H](Cc1ccccc1)NC(=O)[C@@H](NC(=O)CNC(=O)[C@@H](N)Cc1ccc(O)cc1)[C@@H](C)c1c(C)cccc1C)C(=O)N[C@@H](CCCN=C(N)N)C(=O)N1CCC[C@H]1C(=O)N[C@@H](CCCCN)C(N)=O | 25 | 40 |  |
| CC[C@H](C)[C@H](NC(=O)[C@H](CCCN=C(N)N)NC(=O)[C@H](CCCN=C(N)N)NC(=O)[C@H](CC(C)C)NC(=O)[C@H](Cc1ccccc1)NC(=O)[C@H](Cc1ccc(O)cc1)NC(=O)CNC(=O)[C@@H](N)Cc1ccc(O)cc1)C(=O)N[C@@H](CCCN=C(N)N)C(=O)N1CCC[C@H]1C(=O)N[C@@H](CCCCN)C(N)=O | 33 | > 1100 |  |
